The source of these data is article PMC5788402, “Impact of Target Warhead and Linkage Vector on Inducing Protein Degradation: Comparison of Bromodomain and Extra-Terminal (BET) Degraders Derived from Triazolodiazepine (JQ1) and Tetrahydroquinoline (I-BET726) BET Inhibitor Scaffolds” (Journal of Medicinal Chemistry, 2017).

Amino acid sequences for entries named in this document (tags omitted). Residues count along the entry.
UniProt P40337, 54-213 limits assumed: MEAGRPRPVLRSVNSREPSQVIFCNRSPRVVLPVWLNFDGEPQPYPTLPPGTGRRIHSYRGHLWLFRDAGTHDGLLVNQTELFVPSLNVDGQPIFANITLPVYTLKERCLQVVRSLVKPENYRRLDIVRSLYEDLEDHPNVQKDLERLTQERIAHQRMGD

In one assay the target is Brd4^BD2 (Homo sapiens, UniProt O60885). The assay is described as follows: ITC binary titration, Brd4^BD2 into PROTAC. Format: binding. The settings on record: Brd4^BD2 in syringe, PROTAC in cell.
Assay [1] addresses VCB / Brd4^BD2 ternary complex (Homo sapiens, UniProt O60885+P40337). The assay is described as follows: ITC ternary titration, VCB into Brd4^BD2–PROTAC complex. Format: binding.
The mark [2] stands for this setting: ternary, VCB in syringe, Brd4^BD2–PROTAC in cell.

In general, stoichiometry N refers to the number of molecules, sites or subunits per partner or assembly.

As for `Cc1ncsc1-c1ccc(CNC(=O)[C@@H]2C[C@@H](O)CN2C(=O)[C@@H](NC(=O)COCCOCCOCCNC(=O)C[C@@H]2N=C(c3ccc(Cl)cc3)c3c(sc(C)c3C)-n3c(C)nnc32)C(C)(C)C)cc1` [compound 6], on Brd4^BD2, the “stoichiometry N” value turned out to be 0.91 ± 0.06, the ΔG entry is reported as “–10.3 ± 0.04 kcal·mol^–1”, the ΔH result is “–11.1 ± 0.8 kcal·mol^–1” and the “–TΔS” value turned out to be 0.77 ± 0.80 kcal·mol^–1. In assay [1] (ternary vs binary, Brd4^BD2), the “ΔpKd ± uncertainty” value is given as 0.95 ± 0.29. In addition, in assay [1] (setting [2]), the “stoichiometry N” value was determined as 0.83 ± 0.04, the ΔG result was “–11.1 ± 0.3 kcal·mol^–1”, the ΔH result is listed as “–8.47 ± 2.83 kcal·mol^–1” and the “–TΔS” value is listed as “–2.59 ± 0.69 kcal·mol^–1”.
